Data on one molecule can be found in ChEMBL document CHEMBL2176885, “Structural basis for the potent and selective inhibition of casein kinase 1 epsilon” (J Med Chem, 2012).

The chains behind the UniProt entries cited, without tags or fusion partners. Where a name states a change or a piece, a line headed by the entry shows the natural chain unless it says otherwise.
UniProt P49674: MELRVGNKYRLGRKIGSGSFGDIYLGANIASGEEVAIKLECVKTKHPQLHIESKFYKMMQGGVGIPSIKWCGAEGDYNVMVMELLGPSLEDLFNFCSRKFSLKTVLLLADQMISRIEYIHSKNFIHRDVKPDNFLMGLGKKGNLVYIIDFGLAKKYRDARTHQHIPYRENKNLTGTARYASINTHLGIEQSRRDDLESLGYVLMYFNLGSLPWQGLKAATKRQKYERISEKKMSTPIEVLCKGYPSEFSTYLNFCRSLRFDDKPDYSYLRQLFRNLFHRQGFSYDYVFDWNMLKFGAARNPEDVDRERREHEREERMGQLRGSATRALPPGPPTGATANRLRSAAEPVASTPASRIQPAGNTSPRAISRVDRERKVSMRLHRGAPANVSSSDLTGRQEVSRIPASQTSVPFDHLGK

For this test, the target named is Casein kinase I isoform epsilon (Homo sapiens, UniProt P49674). As to the kind of experiment: Inhibition of Casein kinase 1 epsilon.

Regarding `Nc1ncnc2c1c(COc1cccc(Cl)c1)nn2C1CCOCC1`, the IC50 (as a rule, the concentration that gives 50% inhibition) was 32 nM.
